Test results taken from US20060275503A1, “Combination treatment with strontium for the prophylaxis and/or treatment of cartilage and/or bone conditions” (Nordic Bone A/S, priority 2003, published 2006).

Experimental: The solubility of the organic carboxylic acid strontium salts, were measured in water. The solubility of these salts was also measured as a function of temperature. This was performed by incubating the saturated solutions of the salts in temperature controlled incubators.
The buffered solutions were immersed into a bath of water temperature controlled at either room temperature (22-24° C.), at 30° C. or at 40° C. […] In order to eliminate any reminiscent strontium chloride influence on the determination of solubility, all the precipitate was collected at the bottom of the test tubes and the solutions above the precipitate were carefully removed and substituted by fresh solutions. […] From these solutions, the dissolved proportions of the strontium salt were collected in volumes of 1 mL at the specified temperature. The solutions were diluted to 50 mL before analysis by Flame Atomic Absorption Spectrometry (F-AAS).
Two methods were used for quantification of strontium in solutions: Flame Atomic Absorption Spectrometry (F-AAS), and the more sensitive inductively-coupled-plasma-mass spectrometry (ICP-MS).
The solubilities were investigated as described above, and strontium content in the saturated solutions determined as described here below.
Some of the very soluble strontium salts were further diluted before analysis by F-AAS. The measurements were performed by using a Perkin-Elmer 2100 equipped with a hydrogen lamp for correction of the background signal. Strontium was measured at a slit with of 0.2 nm, the wavelength was 460.8 nm operated at an energy of 58 and a current of 8 mA.
This analysis was performed using a Perkin Elmer Elan 5000 system equipped with a cross-flow nebulizer. The power was set at 1000 W and the Argon-gas flow was 12 L/min and 0.8 L/min of the torch and plasma gas, respectively.

strontium α-ketoglutarate [α-ketogluterate]
SOLUBILITY AT 40° C. (mg/L) In water: 3534 mg/L | SOLUBILITY AT 40° C. (mg/L) pH 7.5 (pH 7.5): 3809 mg/L | SOLUBILITY AT ROOM TEMPERATURE (22-24° C. mg/L) pH 7.5 (pH 7.5): 2252 mg/L
